Measurements from patent US12435090B2, “Compounds, pharmaceutical compositions, and methods of preparing compounds and of their use” (Repare Therapeutics Inc., priority 2021, dated 2025).
pIC50: −log10 of the molar value.

Amino acid sequences for entries named in this document (tags omitted).
UniProt Q99640, whole entry: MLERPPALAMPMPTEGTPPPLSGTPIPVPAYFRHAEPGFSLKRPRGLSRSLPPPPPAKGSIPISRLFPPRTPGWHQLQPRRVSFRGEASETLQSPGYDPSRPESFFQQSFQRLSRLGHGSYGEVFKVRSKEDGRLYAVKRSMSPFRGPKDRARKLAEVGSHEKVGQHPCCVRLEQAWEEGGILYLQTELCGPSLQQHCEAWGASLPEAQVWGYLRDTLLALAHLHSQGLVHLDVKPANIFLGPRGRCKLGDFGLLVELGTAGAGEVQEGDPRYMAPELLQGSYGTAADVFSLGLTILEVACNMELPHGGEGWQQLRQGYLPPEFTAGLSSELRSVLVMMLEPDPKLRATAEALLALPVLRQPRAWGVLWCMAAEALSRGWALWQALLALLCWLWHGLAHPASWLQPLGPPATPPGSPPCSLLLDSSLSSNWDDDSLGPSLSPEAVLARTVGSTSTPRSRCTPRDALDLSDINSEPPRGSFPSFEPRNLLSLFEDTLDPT

Biological target: recombinant human Myt1 (Homo sapiens (Human), UniProt Q99640)
Experiment: Myt1 enzymatic assay (ADP-Glo kinase assay)
Type: biochemical
Settings: read-out: Myt1 IC50, 18 nM enzyme, 10 uM ATP

Compound `Cc1ccc(O)c(C)c1-n1c(N)c(C(N)=O)c2nc(C3(C(F)(F)F)CC3)cnc21` [Compound 199] has a pIC50 of over 8.00.
